Molecular target: TF-VIIa (Homo sapiens, UniProt P08709)
Assay: TF-VIIa Assay
Settings: read-out: IC50 or % Inhibition TF-VIIa (30 µM); cells given as a plain number (IC50)

By UniProt entry, the sequences of proteins in these tests, tags left out. Residues count along the entry.
UniProt P08709, 61-212 limits assumed: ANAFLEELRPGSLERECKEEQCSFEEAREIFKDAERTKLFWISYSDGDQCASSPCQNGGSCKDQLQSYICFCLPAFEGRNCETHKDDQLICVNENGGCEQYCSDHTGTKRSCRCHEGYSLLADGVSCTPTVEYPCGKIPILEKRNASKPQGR
UniProt P08709, 213-466 limits assumed: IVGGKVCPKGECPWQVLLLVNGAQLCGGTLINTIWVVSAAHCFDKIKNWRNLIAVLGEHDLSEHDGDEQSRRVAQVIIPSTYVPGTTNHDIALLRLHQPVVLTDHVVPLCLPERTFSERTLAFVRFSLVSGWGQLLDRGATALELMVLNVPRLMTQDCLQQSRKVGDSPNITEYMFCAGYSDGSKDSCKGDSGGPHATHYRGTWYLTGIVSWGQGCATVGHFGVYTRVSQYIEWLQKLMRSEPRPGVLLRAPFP

- IC50: 600 nM
Structure (SMILES): CNc1cccc(-c2c(Cl)nc(NCCc3ccccc3)c(=O)n2CC(=O)NCc2ccc(C(=N)N)cc2)c1 [compound 95]

From patent EP1202975B1 (dated 2000)
